## Binding of CDR-mutated scFvs to a peptide of the spike HR2 region

Target: peptide PDVDLGDISGINAS, taken from heptad repeat 2 (HR2) of SARS-CoV-2 spike.

The variants keep the light chain, the linker and the frameworks of Ab-91 (scFv order VL, the linker GGGGSGGGGSGGGGS, VH).
VL: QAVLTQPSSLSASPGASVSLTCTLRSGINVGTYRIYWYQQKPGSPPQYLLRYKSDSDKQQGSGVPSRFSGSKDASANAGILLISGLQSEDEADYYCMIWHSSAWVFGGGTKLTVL
VH: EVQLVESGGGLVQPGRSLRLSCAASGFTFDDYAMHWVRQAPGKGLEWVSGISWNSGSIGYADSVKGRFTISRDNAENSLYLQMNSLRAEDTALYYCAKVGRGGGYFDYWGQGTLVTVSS

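The starting antibody came from a phage panning campaign against this peptide. Library AAYL51 holds single substitutions and randomly drawn double and triple substitutions in the CDRs. The scFvs were displayed on barcoded MATa yeast, the peptide on MATalpha yeast. Binding brings cells together so that they mate, and sequencing counts the barcode pairs among the diploids. Each replicate has its own calibration line, from reference interactions of the BCL2 family. Each pool was mated in three replicate cultures.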

The parent's heavy chain CDRs are GFTFDDYAMH, GISWNSGSIGYADSVK, VGRGGGYFDY; each variant's own CDRs replace them letter for letter.
The read-out is the apparent dissociation constant on a log10 scale (nM): the lower, the stronger.
"ND" means that the variant was in the library but no mating with the target was seen in that replicate; the authors take this as a sign of poor binding, and no number exists.

| CDR-H1 | CDR-H2 | CDR-H3 | replicates, log10 nM | control signals |
|---|---|---|---|---|
| GFTFDNYAMH | GISWWSGSIGYADSVK | VGRGCGYFDY | ND ND ND | 1 of 9 (4.16) |
| GFTFDDYAMH | GISLYSGSIGYADSVK | VGRDGGYFDY | 4.86 ND ND | 2 of 9 (5.29) |
| GFMFDDYAVH | GISWNSGSIGYADSVK | VGRGRGYFDY | ND ND ND | 1 of 9 (3.80) |
| GFFFDDYAMH | GMSWFSGSIGYADSVK | VGRGGGYFDY | 4.14 6.04 5.14 | 5 of 9 (5.15) |
| GFTFDDYAMH | GIHWNSGSIGYADSVK | VGRGGGYFDK | 5.62 ND ND | 2 of 9 (3.07) |
| GFTQDDYAMH | GIKWNSGSIGYADSVK | VGRGGGWFDY | ND ND ND | 0 of 9 |
| GFTFDDYAMH | GISWNSGSINYADSVK | VGRPGGYFQY | ND ND ND | 0 of 9 |
| GFTFDDYAMH | GISWNSGSIAYANSVP | VGRGGGYFDY | ND ND ND | 0 of 9 |
| GFTFDDYAMH | GISWNSGSIGYADSVK | VSRGCGYFDY | 4.49 ND 4.03 | 4 of 9 (4.70) |
| GFMFDDYAMH | GISWNSGSWGQADSVK | VGRGGGYFDY | ND ND ND | 0 of 9 |
| GFTFDDYAMH | GISWNSGSIGHADSVK | VGRGGGYNDY | 2.95 3.65 3.34 | 7 of 9 (4.66) |
| GFTFDDYAMH | GISWGSKSIGYADSVK | VGRGGGYFDY | 2.61 2.03 2.56 | 0 of 9 |
| GFTFDDYAYH | GISWNAGSIGYADSVK | VGRGGGYFDY | 1.82 1.76 0.63 | 1 of 9 (4.97) |
| GFTFDDYAMH | GISWNSESIGYADDVK | VGRGGYYFDY | ND ND ND | 3 of 9 (4.29) |
| GFTFDDYAMH | GISWNVGNIGYADSVK | VGRGGEYFDY | ND 5.73 4.76 | 4 of 9 (4.24) |
| NFTFEDYAMH | GISWNSGSIGYADSVK | VGRGGGYFDI | 4.21 5.98 ND | 5 of 9 (4.08) |
| GFTFDMYAMH | GIPYNSGSIGYADSVK | VGRGGGYFDY | 3.83 4.75 ND | 0 of 9 |
| GVTFADYAMH | GISWNSGSIGYEDSVK | VGRGGGYFDY | 2.27 2.19 1.54 | 1 of 9 (4.95) |
| PFTFPDYAMH | GISWNSGGIGYADSVK | VGRGGGYFDY | ND ND 4.06 | 2 of 9 (3.94) |
| GFTFDDYAMH | WISWNRGSHGYADSVK | VGRGGGYFDY | ND ND ND | 1 of 9 (4.65) |
| GFTFDDYAMH | GISWNSKSIGYADSVK | VGRGGNYFDY | 4.79 ND ND | 5 of 9 (4.25) |
| GITFDDYAMH | GISWNWGSIGLADSVK | VGRGGGYFDY | 3.47 5.06 4.44 | 2 of 9 (3.67) |
| GFTFDDYAFH | SISWNSGSIGYADSVK | VGEGGGYFDY | ND ND ND | 0 of 9 |
| GFTFDDYMMH | GISWNSTSIGYADSVK | DGRGGGYFDY | 4.15 ND 3.76 | 2 of 9 (4.45) |
| GFTFDDYAMH | GISWNSVSIGYADSGK | VGRGGGMFDY | 4.55 ND 3.65 | 0 of 9 |
| GFKFDDYAMH | GISWNSGSIGYADSVK | VGRDGKYFDY | 4.80 4.73 5.85 | 8 of 9 (4.97) |
| GFTFDDYAMH | GISWNSHSPEYADSVK | VGRGGGYFDY | 4.92 4.49 ND | 3 of 9 (4.21) |
| GHTFDDYAMH | GISWNSGSIGYADSVK | VGREGGIFDY | ND ND ND | 2 of 9 (3.30) |
| MFTFDDYAMH | CISWNSGSIGYADSVK | VGRGGGYNDY | ND ND ND | 0 of 9 |
| GFTFDDYAGH | GISWISGSIGVADSVK | VGRGGGYFDY | ND ND ND | 1 of 9 (4.89) |
| EFTFDDYAMH | LISWNSGSIGYADSVK | YGRGGGYFDY | ND ND ND | 0 of 9 |
| GFTFDDYAMH | GISWNWGSIGYADSVK | VGRGGGYGDY | ND ND ND | 0 of 9 |
| GFTFDDYAMH | GIMWYSGSIGYADSVK | VGREGGYFDY | ND ND ND | 0 of 9 |
| GFTFFDYAMH | GISWDSGSIGYADSVK | VGRGGGKFDY | 0.82 0.80 0.35 | 0 of 9 |

The first 2 variants above that were never detected:

{"CDR-H1": "GFTFDNYAMH", "CDR-H2": "GISWWSGSIGYADSVK", "CDR-H3": "VGRGCGYFDY", "replicates, log10 nM": "ND ND ND", "control signals": "1 of 9 (4.16)"}
{"CDR-H1": "GFMFDDYAVH", "CDR-H2": "GISWNSGSIGYADSVK", "CDR-H3": "VGRGRGYFDY", "replicates, log10 nM": "ND ND ND", "control signals": "1 of 9 (3.80)"}

Background: pairings of library AAYL51 with three empty control strains gave a value in 21% of cases (median 4.54, 5th percentile 3.26). Values in that range, when seen in few replicates, are hard to tell from nonspecific mating. Also given: how often the same scFv was detected with the empty control strains, with their mean in brackets.
Parent in this assay: reference entry 1.86, copy in this library 0.88.

Values reported by Engelhart et al. 2022, doi:10.1038/s41597-022-01779-4 (FLAb copy).